Results from patent US20230091561A1, “METHODS OF TREATING PRIMARY PROGRESSIVE MULTIPLE SCLEROSIS USING AN INHIBITOR OF BRUTON'S TYROSINE KINASE” (Genentech, Inc., priority 2020, published 2023).

The chains behind the UniProt entries cited, without tags or fusion partners. Where a name states a change or a piece, a line headed by the entry shows the natural chain unless it says otherwise.
UniProt Q06187: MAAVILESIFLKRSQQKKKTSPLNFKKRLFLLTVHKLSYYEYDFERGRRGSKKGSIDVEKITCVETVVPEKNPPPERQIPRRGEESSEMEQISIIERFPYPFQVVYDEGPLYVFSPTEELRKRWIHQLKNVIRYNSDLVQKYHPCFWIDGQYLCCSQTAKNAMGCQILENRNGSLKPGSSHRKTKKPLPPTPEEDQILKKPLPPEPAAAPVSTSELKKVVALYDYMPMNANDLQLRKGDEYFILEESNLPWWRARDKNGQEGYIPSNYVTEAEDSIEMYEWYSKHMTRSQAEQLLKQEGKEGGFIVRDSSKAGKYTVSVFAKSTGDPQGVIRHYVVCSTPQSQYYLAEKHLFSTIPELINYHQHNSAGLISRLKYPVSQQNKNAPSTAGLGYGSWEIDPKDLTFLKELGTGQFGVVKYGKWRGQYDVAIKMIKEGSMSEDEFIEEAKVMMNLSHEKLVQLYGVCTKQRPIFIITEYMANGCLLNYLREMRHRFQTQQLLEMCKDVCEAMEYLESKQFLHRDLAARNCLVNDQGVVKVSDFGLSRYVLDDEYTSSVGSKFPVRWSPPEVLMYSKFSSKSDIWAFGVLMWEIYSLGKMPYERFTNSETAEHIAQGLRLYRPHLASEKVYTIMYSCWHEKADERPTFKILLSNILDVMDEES

How the values were obtained:
TXK = biological target: T1, TXK (Homo sapiens, UniProt P42681); assay: Kinase selectivity IC50, TXK
T1 sequence (P42681 1-527): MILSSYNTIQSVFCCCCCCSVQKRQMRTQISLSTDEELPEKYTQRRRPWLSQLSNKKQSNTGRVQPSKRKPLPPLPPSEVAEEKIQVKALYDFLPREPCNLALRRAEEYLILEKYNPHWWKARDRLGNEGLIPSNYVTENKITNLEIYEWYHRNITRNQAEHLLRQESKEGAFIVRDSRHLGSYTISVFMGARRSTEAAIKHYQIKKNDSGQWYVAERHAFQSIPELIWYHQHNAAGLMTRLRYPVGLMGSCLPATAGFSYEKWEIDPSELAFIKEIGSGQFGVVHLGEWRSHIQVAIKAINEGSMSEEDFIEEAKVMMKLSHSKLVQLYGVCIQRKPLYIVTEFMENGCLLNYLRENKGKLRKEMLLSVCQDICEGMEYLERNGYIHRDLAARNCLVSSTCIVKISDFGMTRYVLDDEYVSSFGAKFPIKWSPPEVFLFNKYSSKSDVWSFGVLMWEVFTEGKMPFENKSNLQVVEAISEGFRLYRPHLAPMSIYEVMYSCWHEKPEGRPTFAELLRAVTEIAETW

[1] = test system: panel of over 200 human kinases; conditions: footnote a (Crawford et al.), cited from earlier work
[2] = test system: panel of over 200 human kinases; assay: Kinase selectivity panel screen, kinases inhibited >50%; format: biochemical
Protocol: The rate of FEN release from the BTK•FEN complex was quantified in a biochemical preincubation-dilution experiment, where BTK activity was recovered with a rate constant kw and residence time 1/koff.

[3] = biological target: N-terminal His-tagged full-length recombinant human BTK (Homo sapiens, UniProt Q06187); assay: biochemical; conditions: competitive binding kinetics
BTK [4] = biological target: T2, BTK (Homo sapiens, UniProt Q06187); conditions: footnote a (Crawford et al.), cited from earlier work
BTK [5] = biological target: T2, BTK; conditions: read-out: BTK IC50; footnote a (Crawford et al.); cited from earlier work

| Compound | IC50 (TXK) [nM] | # off-target kinases >50% INH/# total kinases tested @ 1 μM ([1]; listed as EVO) | # off-target kinases >50% INH/# total kinases tested @ 1 μM [1] | off-target kinases inhibited by >50% / kinases tested at 10 μM [2] | Ki ([3]; BTK Ki*) [nM] | Ki ([3]; BTK Ki, non-covalent inhibitor) [nM] | BTK residence time (jump dilution vs. 50 μM ATP) (BTK [4]; listed as FEN) [h] | BTK residence time (jump dilution vs. 50 μM ATP) (BTK [4]) | IC50 (BTK [5]) [nM] | # off-target kinases >50% INH/# total kinases tested @ 1 μM ([1]; listed as FEN) |
| --- | --- | --- | --- | --- | --- | --- | --- | --- | --- | --- |
| C=CC(=O)N1CCC(CNc2ncnc(N)c2-c2ccc(Oc3ccccc3)cc2)CC1 [Evobrutinib] | 254 | 3/221 | 3/221 ^a | 18/218 | – | – | – | – | – | – |
| C[C@H]1CN(C2COC2)CCN1c1ccc(Nc2cc(-c3ccnc(N4CCn5c(cc6c5CC(C)(C)C6)C4=O)c3CO)cn(C)c2=O)nc1 [Fenebrutinib] | – | – | 2/286 ^a | – | 0.17 | 7.1 | 18.3 | 18.3 ^a h | 2.3 | 3/286 |

Like-named read-outs stand apart in the source and are kept apart here.
